Measured values published in US10309966B2, “Personalized therapy of inflammation-associated cancer using methods of assessing the susceptibility of a subject to the treatment with EGFR inhibitors/antagonists” (Medizinische Universität Wien, priority 2014, dated 2019).

What was measured:
[1] = system: IL-6 secretion by isolated Kupffer cells; test: IL-1β-induced IL-6 production/secretion by isolated Kupffer cells (ELISA, qRT-PCR); assay type: cell-based, mouse; conditions: preincubation with increasing amounts of inhibitor (BIBW2992 0.005-20 μM, cetuximab 0.01-1 μg/ml); IL-1β 10 ng/ml; FIGS. 9A, 9B
Description: ELISA for IL-6, IL17A, IL22, IL23 (eBioscience), amphiregulin (R&D Systems), CCL2, IL-1β and IL-1α (BD Biosciences-Pharmigen) were performed following the manufacturer's instructions. MTT assay (EZ4U, Biomedica) was performed to quantify the number of viable Kupffer cells in the wells. The cytokine value was normalized to the number of viable Kupffer cells.
Hepatocytes were plated onto collagen pre-coated cell culture dishes and cultured in HepatoZyme-SFM (Gibco) supplemented with 2 mM glutamine and 1% penicillin-streptomycin (P/S). Hepatocytes were either treated with the indicated amounts of DEN for 24 hours or with 10 ng/ml TNFα (eBioscience) in the presence of cycloheximide (100 μg/ml, Sigma) for 12 hours to study the hepatoprotective role of EGFR. […] Since the number of Kupffer cells which can be recovered from one mouse is very low, it was technically impossible to perform Western Blot analysis for all indicated signaling molecules on one single batch of Kupffer cells. Usually Kupffer cells from 2 livers of the same genotype were pooled together to obtain around 20-30 μg of protein lysate.

[2] = system: advanced stage HCC patients; conditions: cited from earlier work

cetuximab: EGFR-inhibiting antibody
IL-6 production in Kupffer cells (IL-1β-induced IL-6 secretion) [1]: prevented
clinical results in advanced stage HCC patients [2]: disappointing clinical results
